Results on two substances are retold here after patent US8586103B2, “Non-polymeric compositions for controlled drug delivery” (Foresee Pharmaceuticals, LLC, priority 2008, dated 2013).

A short description of this data set: Stability of the octreotide in formulations at room temperature over time (HPLC). The format is physicochemical. Particulars: SAIB/NMP formulation, after seven days at room temperature. The text has this:
Those peaks were not observed from the formulation at the beginning, indicating the generation of impurities or degradation products of the octreotide. The intensity of these peaks increased with the increase of time, while the peak for octreotide decreases over time. […] Therefore, this type of formulation must be modified to be suitable for controlled release delivery of various bioactive substances.
Octreotide acetate (OCT-Ac), octreotide dodecyl sulfate (OCT-SDS) and octreotide docusate (OCT-DSS) complex powders were dissolved in NMP. Then the solutions containing various salt forms of octreotide were thoroughly mixed with SAIB solution in NMP (90% w/w).
After two hours, about 4% of the octreotide was degraded or reacted.

For the substance octreotide docusate [OCT-DSS], the “degradation of the octreotide detected” value is recorded as “little or no degradation”.

With octreotide dodecyl sulfate [OCT-SDS], the “degradation of the octreotide detected” value is on record as “little or no degradation”.
